Test results as given in US20240085426A1, “TRIPLE QUADRUPOLE-BASED MULTIPLE REACTION MONITORING FOR CLINICAL THERAPEUTIC RESPONSE PREDICTION IN CANCER” (NATIONAL CANCER CENTER, priority 2020, published 2024).

Test system: metastatic gastric cancer
Assay: Clinical response of HER2-positive metastatic gastric cancer patients to combination therapy with trastuzumab
Type: in vivo, patient
Description: The present invention was applied to gastric cancer tissues isolated from pre-treatment of two male gastric cancer patients (patients 7 and 8) who were both positive on HER2 immunostaining (3+, 2+) and received combination therapy with trastuzumab (trade name: Herceptin), which is a HER2-targeting agent.

trastuzumab
clinical response (patient 7, first-line, HER2 immunostaining positive): partial response | clinical response (patient 8, first-line, at first response evaluation, treatment discontinued): progressive disease
